## Apparent affinities of Ab-14 variants for a coronavirus HR2 peptide

From the AlphaSeq antibody data of Li et al. 2023 (doi:10.1038/s41467-023-39022-2), copy in the FLAb collection.

Antigen: PDVDLGDISGINAS, a 14-residue peptide of the SARS-CoV-2 spike HR2 region.

Ab-14 is the parent antibody, in scFv form: VH, then a (GGGGS)3 linker, then VL. The heavy chain is unchanged in all variants.
VH: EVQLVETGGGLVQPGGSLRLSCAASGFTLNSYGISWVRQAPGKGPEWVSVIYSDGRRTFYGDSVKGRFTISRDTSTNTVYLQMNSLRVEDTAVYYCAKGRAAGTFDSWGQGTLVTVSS
VL: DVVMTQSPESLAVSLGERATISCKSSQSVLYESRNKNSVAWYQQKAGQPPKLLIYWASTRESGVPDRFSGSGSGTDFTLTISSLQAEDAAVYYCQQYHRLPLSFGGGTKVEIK

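The variants were designed computationally from a first round of random CDR variants and then made and measured. Their group label is 14L_En_HC (En: ensemble of fine-tuned language models; HC: hill climbing; a sequence that several methods proposed may carry one label only). The assay is AlphaSeq: two haploid yeast populations carry antibody and antigen on their surface. Mating (16 h, 30 °C) was followed by selection of diploids and sequencing of their barcodes. Read counts were normalised to the haploid input and turned into Kd by a linear fit to BCL2-family pairs of known affinity, for each replicate. There are six technical replicates.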

Each variant is given by its three light chain CDRs, as the data file delimits them; those of the parent are KSSQSVLYESRNKNSVA, WASTRES, QQYHRLPLS. Numbers give log10(Kd / nM), so 0 is 1 nM and 3 is 1 µM. Smaller is tighter. Averages over replicates are reported, and they cover detected replicates only. An entry "nd" has no value in the source: the pair was not observed among the diploids in that replicate. This suggests poor binding but is not conclusive. Of ten entries with the parent sequence, four were seen in most replicates (averages 0.34 to 2.37), three in one and three in none, so single entries are noisy. The authors averaged sequences with at least three values out of six and counted those with two or fewer as poor binders. Background: pairings of all light chain designs with three empty control strains gave a value in 4% of cases (median 2.64, 5th percentile 1.59). Values in that range, when seen in few replicates, are hard to tell from nonspecific mating. Also given: how often the same scFv was detected with the empty control strains, with their mean in brackets. A sequence measured in both rounds can read differently, since the two assays cover different ranges.

CDR-L1 | CDR-L2 | CDR-L3 | log10 Kd, replicates | log10 Kd (nM), mean | control signals
KISSLTNYESVNYNSVA | EMSTRPS | QSYHRLPLS | 1.59 / 2.08 / 0.96 / 2.30 / 1.31 / 2.04 | 1.71 | 0/18
QLYAVQDMTSKNENSVA | EQSTREN | QQYHRLPLS | 2.08 / 1.37 / 1.29 / 1.15 / 1.06 / 1.38 | 1.39 | 2/18 (2.54)
KLLQEVTGRSQNRNSVA | HNSTRED | QQYDRLPLI | 1.83 / 2.50 / 2.17 / nd / 2.25 / 1.83 | 2.12 | 1/18 (2.59)
KLSQMVLFWGHAINSVA | EMETREN | QQYDRLPLS | 1.36 / 1.28 / nd / 2.36 / 1.60 / 1.53 | 1.62 | 0/18
TVSQVMGMLSHNKNSVA | DMNTRGS | QQYDRLPLS | 0.49 / 0.58 / 0.12 / 0.39 / 0.16 / 0.67 | 0.40 | 0/18
MISDLTMYGSHNKNSVA | DLSTRGS | QQYHRLPLS | 0.24 / 0.10 / 0.42 / 0.21 / 0.03 / 0.33 | 0.22 | 1/18 (2.57)
KIYMMTGYESRNADSIA | DNSTRGR | QQYHRLPLS | 2.81 / 1.04 / 1.30 / 1.07 / 1.93 / 1.39 | 1.59 | 0/18
KLGMTVGYEQRNKSRVA | DNSTRES | QQYDRLPLS | 2.28 / 1.85 / nd / 1.84 / nd / 2.83 | 2.20 | 0/18
KISMTTTFESRNKNSVA | ENSTRES | QSYHRLPLS | nd / 2.47 / 2.04 / 1.53 / 1.63 / 1.59 | 1.85 | 1/18 (3.12)
IVSQSVLGESRNINSVA | QTSEREY | QQYDRLPLS | 1.30 / 0.76 / 0.87 / 1.07 / 1.01 / 0.85 | 0.98 | 0/18
KLREVQHVETKQKNNVA | DNSTRES | QDYHRLPLS | 2.21 / 2.04 / 1.87 / 2.39 / 2.22 / 2.75 | 2.25 | 3/18 (2.86)
MIAESIGYQSRNKNSVA | DNSTRED | QCYDRLPLS | nd / nd / nd / 2.73 / nd / nd | 2.73 | 0/18
KISMYLNKESKATNNVA | EMVNRES | QQYDRLPLS | nd / nd / nd / 2.82 / 1.89 / 2.09 | 2.27 | 1/18 (2.08)
KLSISYLFESQEKNSIA | ENSTREE | QHYHRLPLS | nd / nd / nd / nd / 3.10 / nd | 3.10 | 1/18 (2.67)
KLYFNVGTMSHNTQSIA | DMERRED | QQYHRLPLS | 1.23 / 0.44 / 0.79 / 0.18 / 0.36 / 0.54 | 0.59 | 0/18
IIGQSVMFEQTLINSVA | NAQTRES | QQYHRLPLS | 0.47 / 0.50 / 0.39 / 0.60 / 0.78 / 0.68 | 0.57 | 2/18 (4.05)
KLGQMTAIESRMLNSVA | QMDTRES | QQYHRLPLS | 0.24 / 0.57 / 0.23 / 0.21 / 0.29 / 0.59 | 0.35 | 0/18
ALSQSMDMTSRNKNSVA | DLSTRMN | QQYHRLPLS | -0.13 / -0.19 / -0.36 / -0.35 / -0.25 / -0.19 | -0.25 | 4/18 (3.45)
KLRMSTGYESRNKDSIA | DNSTRGR | QQYHRLPLS | 1.53 / 1.19 / 1.04 / 1.66 / 1.19 / 1.49 | 1.35 | 0/18
KIAMSMNMTSHHINSVA | QSTTREE | QQYNHLPLS | 0.04 / 0.16 / 0.46 / 0.14 / -0.07 / 0.73 | 0.24 | 0/18
MFSQLVYTGSRTKNAVA | QASTREN | QQYHRLPLS | 0.99 / 0.96 / -0.07 / 0.59 / 0.55 / 0.20 | 0.54 | 0/18
KLRVMTLTEGYFKNSVA | QASTREN | QSYHRLPLS | 2.25 / 1.46 / 1.51 / 1.02 / 1.35 / 1.21 | 1.47 | 0/18
KLSSFHNLETINKSNVA | EMVTREN | QQYDRLPLS | 1.68 / 1.65 / 2.09 / 2.91 / 1.37 / 1.76 | 1.91 | 1/18 (1.91)
MIAESVGYQSRNKNSVA | DNSTREY | QCYDRLPLS | nd / nd / nd / nd / nd / nd | nd | 0/18
HLSDTVMGGSYYRNSVA | QESTRAD | QQYHRLPLS | -0.27 / -0.07 / -0.18 / -0.25 / -0.17 / -0.12 | -0.18 | 1/18 (2.24)
KLSQSVRMESFVKDNVA | ENSTREE | QDYHRLPLS | nd / nd / nd / 0.64 / 2.60 / nd | 1.62 | 0/18
MISDLTMYGSRNKNSVA | DLSTRGS | QQYHRLPFS | 0.28 / 0.29 / 0.36 / 0.21 / 0.33 / 0.36 | 0.30 | 0/18
MLSDLVKMGHRNTNSVA | DNSTRGS | QQYDRLPLS | 1.60 / 1.77 / 1.87 / 2.12 / 2.06 / 2.06 | 1.91 | 3/18 (2.69)
MISDLTYVGMRNVNSVA | DLSTRGN | QQYDRLPLS | 0.87 / 0.85 / 0.30 / 0.98 / 1.08 / 0.65 | 0.79 | 0/18
MISDLTMYGSRNVNSVA | DLSNRGS | QQYDRLPLS | 0.83 / 0.83 / 0.75 / 0.97 / 0.89 / 0.79 | 0.84 | 2/18 (3.40)
TIGQSTLMESQNRNNVA | QMSTREK | QQYDRLPLS | 0.08 / 0.38 / 0.06 / 0.21 / 0.18 / 0.02 | 0.15 | 0/18
MMSYGWLYGSRNKRNVA | DHETRES | QQYDRLPLS | 0.44 / 0.40 / 0.30 / 0.25 / 0.26 / 0.32 | 0.33 | 2/18 (2.57)